Literature values as cited in PMC11219766 (Nature Communications, 2024).

Amino acid sequences for entries named in this document (tags omitted). A change or cut given only in a name is not applied to a line headed by its entry.
UniProt Q99828: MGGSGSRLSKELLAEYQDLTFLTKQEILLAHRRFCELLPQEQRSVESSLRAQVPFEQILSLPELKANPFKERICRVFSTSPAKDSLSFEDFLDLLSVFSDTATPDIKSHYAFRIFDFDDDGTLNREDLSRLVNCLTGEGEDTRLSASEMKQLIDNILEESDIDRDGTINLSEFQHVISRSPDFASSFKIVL

Target: CIB1 (Homo sapiens, UniProt Q99828)
Conditions: read-out: CIB1 IC50; cited from earlier work

-S-Ac-YTTPIWNIRFC-NH2 [UNC10245204]
IC50: 15 nM
